# Results published in US11760766B2, “Ionic liquids containing quaternary ammonium and phosphonium cations, and their use as environmentally friendly lubricant additives” (UT-Battelle, LLC, priority 2020, dated 2023).
# Tested on: Ceriodaphnia dubia
# Conditions: in vivo
substance,measurement,value
tributyl(methyl)ammonium dibutyl phosphate [[N4441][DBP]],Number of surviving Daphnia,10
